# In US11071801B2, “Release of ClO2 gas from medical device packaging film” (priority 2015, dated 2021):
# Type: physicochemical
# Settings: 20 mL sealed vial, upper detection limit 240 ppm
substance,measurement,setting,value
sodium chlorite [Sample 6],ClO2 concentration after UV (254 nm) light exposure,"after the fluorescent exposure, UV 254 nm for 15 seconds",>240 ppm
same,ClO2 concentration after fluorescent light exposure,compact fluorescent light approx. 4.5 hours,63 ppm
